Results from patent US10195201B2, “Heteroaryl-pyrimidinone compounds as PDE2 inhibitors” (Merck Sharp & Dohme Corp., priority 2015, dated 2019).

Protein sequences, listed by entry. Tags and fused reporters are not part of them. Chains listed by the source or under a name are the forms on record and can include a tag or linker.
UniProt O00408, other isoform, or with tags, fused parts or gaps: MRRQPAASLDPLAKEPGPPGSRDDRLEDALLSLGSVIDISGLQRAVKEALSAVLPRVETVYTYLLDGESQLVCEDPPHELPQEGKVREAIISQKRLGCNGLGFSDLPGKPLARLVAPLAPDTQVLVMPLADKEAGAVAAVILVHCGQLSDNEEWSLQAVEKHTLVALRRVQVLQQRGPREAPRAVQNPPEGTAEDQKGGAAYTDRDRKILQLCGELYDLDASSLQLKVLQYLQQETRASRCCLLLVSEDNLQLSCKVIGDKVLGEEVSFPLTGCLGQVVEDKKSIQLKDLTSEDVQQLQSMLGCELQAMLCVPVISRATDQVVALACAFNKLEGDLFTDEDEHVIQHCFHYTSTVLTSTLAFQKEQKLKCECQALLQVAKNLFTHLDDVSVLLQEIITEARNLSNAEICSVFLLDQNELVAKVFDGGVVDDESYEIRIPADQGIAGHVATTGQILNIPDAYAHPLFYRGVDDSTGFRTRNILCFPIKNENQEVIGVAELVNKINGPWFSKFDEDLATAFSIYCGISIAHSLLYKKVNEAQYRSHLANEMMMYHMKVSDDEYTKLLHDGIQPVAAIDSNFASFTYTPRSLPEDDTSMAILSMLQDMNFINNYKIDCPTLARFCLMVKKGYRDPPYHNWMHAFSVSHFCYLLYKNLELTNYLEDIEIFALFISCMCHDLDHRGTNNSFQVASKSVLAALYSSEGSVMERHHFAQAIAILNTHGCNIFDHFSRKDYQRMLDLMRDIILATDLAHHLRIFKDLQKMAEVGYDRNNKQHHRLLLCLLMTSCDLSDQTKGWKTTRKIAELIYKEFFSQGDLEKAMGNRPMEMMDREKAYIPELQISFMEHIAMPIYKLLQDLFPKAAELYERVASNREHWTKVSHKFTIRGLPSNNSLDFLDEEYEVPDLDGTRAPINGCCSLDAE

Biological target: human PDE2A1 (Homo sapiens (Human), UniProt O00408)
Assay: PDE2 fluorescence polarization (IMAP FP) inhibition assay, human enzyme
Type: biochemical
Conditions: LabB; read-out: hPDE2 Ki (nM) LabB
Protocol: The activity of the compounds in accordance with the present invention as PDE2 inhibitors may be readily determined using a fluorescence polarization (FP) methodology (Huang, W., et al., J. Biomol Screen, 2002, 7: 215).
Selectivity for PDE2, as compared to other PDE families, was assessed using the IMAPR technology. Human PDE10A2 enzyme was prepared from cytosolic fractions of transiently transfected HEK cells. […]
Assays for PDE 1 through 11 were performed in parallel at room temperature in 384-well microtiter plates with an incubation volume of 20.2 μL. […] The plates were incubated at room temperature for one hour, then the parallel and perpendicular fluorescence was measured using a Tecan Genios Pro plate reader (Tecan, Switzerland). The apparent inhibition constants for the compounds against all 11 PDE's was determined from the parallel and perpendicular fluorescent readings as described for PDE10 FP assay using the following apparent KM values for each enzyme and substrate combination: PDE1A (FAM cGMP) 70 nM, human PDE2A1 (FAM cAMP) 10,000 nM, PDE3A (FAM cAMP) 50 nM, PDE4A1A (FAM cAMP) 1500 nM, PDE5A1 (FAM cGMP) 400 nM, PDE6C (FAM cGMP) 700 nM, PDE7A (FAM cAMP) 150 nM, PDE8A1 (FAM cAMP) 50 nM, PDE9A2 (FAM cGMP) 60 nM, […] (FAM cAMP) 150 nM, PDE11A4 (FAM cAMP) 1000 nM. […]

For Cc1nc(-c2cn([C@H](C)c3ccc(C(F)(F)F)cc3F)cn2)cc(=O)[nH]1 (single isomer, unassigned) [Example 15], which Ki is on record?
The Ki was 45 nM.
